The IC50 is the concentration at which inhibition is half-maximal.

Sequences of proteins named here, by UniProt entry; tags and fusion partners are left off. A change or cut given only in a name is not applied to a line headed by its entry.
UniProt Q14416: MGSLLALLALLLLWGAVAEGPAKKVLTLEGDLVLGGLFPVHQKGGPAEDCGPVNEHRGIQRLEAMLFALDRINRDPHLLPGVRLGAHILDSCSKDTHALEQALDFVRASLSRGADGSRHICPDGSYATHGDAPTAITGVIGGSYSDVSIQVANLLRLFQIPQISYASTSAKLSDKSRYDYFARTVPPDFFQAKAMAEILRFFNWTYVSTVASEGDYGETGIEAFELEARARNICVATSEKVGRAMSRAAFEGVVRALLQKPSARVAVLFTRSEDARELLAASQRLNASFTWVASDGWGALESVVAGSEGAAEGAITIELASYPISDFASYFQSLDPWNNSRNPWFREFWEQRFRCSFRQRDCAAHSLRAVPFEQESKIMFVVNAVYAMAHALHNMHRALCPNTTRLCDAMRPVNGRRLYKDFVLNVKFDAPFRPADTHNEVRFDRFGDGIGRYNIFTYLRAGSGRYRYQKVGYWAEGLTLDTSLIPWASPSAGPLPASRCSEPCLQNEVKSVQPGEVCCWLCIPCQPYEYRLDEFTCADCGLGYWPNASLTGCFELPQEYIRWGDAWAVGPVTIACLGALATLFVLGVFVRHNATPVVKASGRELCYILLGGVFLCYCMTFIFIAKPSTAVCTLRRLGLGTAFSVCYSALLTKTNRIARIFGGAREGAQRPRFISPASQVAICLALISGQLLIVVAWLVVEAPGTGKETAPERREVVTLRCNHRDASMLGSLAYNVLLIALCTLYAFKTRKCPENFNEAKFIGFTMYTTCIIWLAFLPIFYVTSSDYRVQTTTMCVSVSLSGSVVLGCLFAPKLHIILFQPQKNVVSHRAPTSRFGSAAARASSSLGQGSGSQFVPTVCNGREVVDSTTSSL

In ChEMBL document CHEMBL5726225, “Quinoline carboxamide and quinoline carbonitrile derivatives as mGluR2-negative allosteric modulators, compositions, and their use” (2017) one finds IC50 data, which are given here for two compounds.

This test deals with Metabotropic glutamate receptor 2 (Homo sapiens, UniProt Q14416). Put plainly: Biological Assay: The utility of the compounds in accordance with the present invention as antagonists of metabotropic glutamate receptor activity, in particular mGluR2 activity, may be demonstrated by methodology known in the art. Antagonist constants are determined as follows. The compounds of the present invention were tested in a fluorescence laser imaging plate reader based assay. This assay …. In kind it is cell-based.

Regarding `NC(=O)c1cc(-c2c(Cl)cc(F)cc2Cl)c2ccccc2n1`, the half-maximal inhibitory concentration (IC50) amounted to 0.171 µM.

`CCC(O)(c1nnnn1Cc1ccc2c(-c3ccc(F)cc3)cc(C(N)=O)nc2c1)C(F)(F)F` (configuration not stated) registered an IC50 of 0.024 µM.
